Measured values: ChEMBL document CHEMBL5046270, “A Selective and Orally Bioavailable Quinoline-6-Carbonitrile-Based Inhibitor of CDK8/19 Mediator Kinase with Tumor-Enriched Pharmacokinetics” (J Med Chem, 2022)

Protein sequences, listed by entry. Tags and fused reporters are not part of them. Lines headed by an entry give the natural chain unless they say otherwise; changes in a name come on top.
UniProt P49336: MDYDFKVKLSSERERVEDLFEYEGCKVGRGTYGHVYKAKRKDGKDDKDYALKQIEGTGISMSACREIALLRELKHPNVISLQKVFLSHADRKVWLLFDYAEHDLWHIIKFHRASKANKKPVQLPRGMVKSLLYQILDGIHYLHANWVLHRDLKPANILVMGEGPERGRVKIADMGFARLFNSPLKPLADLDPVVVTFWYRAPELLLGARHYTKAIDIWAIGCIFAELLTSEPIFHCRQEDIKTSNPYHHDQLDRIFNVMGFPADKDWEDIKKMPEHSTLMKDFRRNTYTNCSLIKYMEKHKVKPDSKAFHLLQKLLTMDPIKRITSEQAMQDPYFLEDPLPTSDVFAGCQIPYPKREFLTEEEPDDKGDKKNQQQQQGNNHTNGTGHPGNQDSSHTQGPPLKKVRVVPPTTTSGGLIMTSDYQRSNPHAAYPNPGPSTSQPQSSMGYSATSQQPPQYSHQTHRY

Experiments:
[1] = Inhibition of CDK8/CDK19 in MV4-11 cells and measured after 7 days by Spectra max iD5 microplate reader; assay type: cell-based, Homo sapiens
CDK8/Cyclin C = CDK8/Cyclin C (Homo sapiens, UniProt P49336); experiment: Binding affinity to kinase tracer 236 binding to His tagged recombinant human CDK8/cyclinC assessed as dissociation constant by TR FRET based assay; assay type: protein-complex assay

| IC50 [1] [nM] | Kd (CDK8/Cyclin C) [nM] | Structure (SMILES) |
| --- | --- | --- |
| > 1000 | – | CN1CCN(C(=O)c2ccc3nc(CCNc4ccnc5ccc(C#N)cc45)ccc3c2)CC1 |
| – | 1.97 | CN1CCN(C(=O)c2ccc3cc(CCNc4ncnc5ccc(C#N)cc45)ccc3c2)CC1 [SENEXIN B] |
